From ChEMBL document CHEMBL3217531, “Potential Drug Abuse Therapeutics Derived from the Hallucinogenic Natural Product Salvinorin A” (Medchemcomm, 2011)

By UniProt entry, the sequences of proteins in these tests, tags left out. Where a name states a change or a piece, a line headed by the entry shows the natural chain unless it says otherwise.
UniProt P41145: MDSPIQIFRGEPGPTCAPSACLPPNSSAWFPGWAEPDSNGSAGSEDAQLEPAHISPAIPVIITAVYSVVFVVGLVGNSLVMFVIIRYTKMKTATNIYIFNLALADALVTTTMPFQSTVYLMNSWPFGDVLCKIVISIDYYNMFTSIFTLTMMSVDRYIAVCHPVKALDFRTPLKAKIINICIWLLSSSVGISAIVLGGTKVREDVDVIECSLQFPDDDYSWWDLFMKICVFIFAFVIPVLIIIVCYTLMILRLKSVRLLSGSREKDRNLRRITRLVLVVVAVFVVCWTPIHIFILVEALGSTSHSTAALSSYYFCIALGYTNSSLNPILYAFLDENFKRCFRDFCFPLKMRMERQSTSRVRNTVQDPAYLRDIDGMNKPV

Tests used:
[1] = molecular target: T1, Kappa-type opioid receptor (Homo sapiens, UniProt P41145); experiment: Agonist activity at human kappa opioid receptor expressed in CHO cell membrane assessed as [35S]GTPgammaS binding after 3 hrs by liquid scintillation counting analysis relative to (-)-U50488H; type: functional, cell membranes
[2] = molecular target: T1, Kappa-type opioid receptor; experiment: Agonist activity at human kappa opioid receptor expressed in CHO cell membrane assessed as [35S]GTPgammaS binding after 3 hrs by liquid scintillation counting analysis; type: functional, cell membranes

With `COCO[C@H]1C[C@@H](C(=O)OC)[C@]2(C)CC[C@H]3C(=O)O[C@H](c4ccoc4)C[C@]3(C)[C@H]2C1=O` the Emax [1] was 118% and the ED50 [2] was 6 nM.
